Assay results taken from US8409550B2, “Method for treating skin with retinoids and retinoid boosters” (Unilever Home & Personal Care, USA, Division of Conopco, …, priority 2000, dated 2013).

System: transglutaminase (TGase I)
Assay: Transglutaminase (Tgase) ELISA assay in cultured keratinocytes with retinol and boosters
Type: cell-based, human
Conditions: 1 μM retinoid, day 2, keratinocytes 4000 cells/well

With CC1=C(/C=C/C(C)=C/C=C/C(C)=C/C(=O)O)C(C)(C)CCC1 [retinoic acid, all-trans-retinoic acid, reference compound] the “inhibition of transglutaminase production (maximal)” value was 85%.
